Reference: ChEMBL document CHEMBL4364297, “Probing the Ligand-Binding Pocket of BTN3A1” (J Med Chem, 2019)

Amino acid sequences for entries named in this document (tags omitted). A change or cut given only in a name is not applied to a line headed by its entry.
UniProt O00481: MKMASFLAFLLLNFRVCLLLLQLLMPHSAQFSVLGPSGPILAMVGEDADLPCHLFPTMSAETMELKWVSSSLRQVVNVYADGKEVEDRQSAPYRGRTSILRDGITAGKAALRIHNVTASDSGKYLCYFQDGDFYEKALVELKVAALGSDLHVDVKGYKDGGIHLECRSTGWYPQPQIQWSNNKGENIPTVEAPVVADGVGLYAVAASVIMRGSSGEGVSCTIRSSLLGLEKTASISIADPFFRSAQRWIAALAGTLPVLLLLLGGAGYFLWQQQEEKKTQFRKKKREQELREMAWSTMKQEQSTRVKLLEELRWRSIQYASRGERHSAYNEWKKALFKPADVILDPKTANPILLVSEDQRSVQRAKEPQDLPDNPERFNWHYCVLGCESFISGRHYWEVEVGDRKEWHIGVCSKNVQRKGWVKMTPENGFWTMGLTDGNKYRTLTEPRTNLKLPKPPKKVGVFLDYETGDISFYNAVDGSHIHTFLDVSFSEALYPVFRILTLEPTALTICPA

Target: Butyrophilin subfamily 3 member A1 (Homo sapiens, UniProt O00481)
Assay: Binding affinity to C-terminal 6His-tagged BTN3A1 full interaction domain (unknown origin) expressed in Escherichia coli BL21 (DE) by isothermal calorimetric titration method

C/C(=C\CCP(=O)(O)CP(=O)(O)O)CO
Kd: 111 µM
